In article PMC8958505, “Discovery of Potential Neuroprotective Agents against Paclitaxel-Induced Peripheral Neuropathy” (Journal of Medicinal Chemistry, 2022):
Values joined by “and” are separate entries in the source; they are usually repeats but may differ in a detail not shown here. Equal entries are not always repeated. Structures can show the parent of a compound that is named as a salt.

Columns and labels:
[1] = system: paclitaxel-induced neuropathy in C57BL/6 mice; experiment: von Frey filament test (mechanical) in paclitaxel-induced neuropathy; format: in vivo, mouse
Experimental: Three behavioral models of paclitaxel-induced neuropathy were used to verify the neuroprotective effect of CN016. Namely, thermal and mechanical nociceptive reactions described below were evaluated by tail immersion and von Frey filament tests, respectively, and motor coordination was assessed with the rotarod performance test (Supporting Information, Figure S1A,B). To mimic the clinical therapeutic regimen, CN016 (5, 10 and 20 mg/kg) was administrated to 7-week-old female C57BL/6 mice by intraperitoneal injection (IP) 1 h prior to each injection of paclitaxel (4.5 mg/kg) on four alternate days (days 1, 3, 5, and 7). Each test’s basal level was recorded before treatment, and additional sessions of behavior tests were performed weekly for five weeks (Figure 4A).
The baseline of every neurological behavior test was measured in 6-week-old C57BL/6J female mice prior to treatment. […] Mechanical hyperalgesia was evaluated by using von Frey filament (#2390, IITC Inc., USA), thermal sensitivity was determined by the tail immersion assay (water temperature: 48–49 °C), and motor coordination was assessed by rotarod (#7750, Ugo Basile Biological Research Apparatus, Italy). After the first drug implantation, the body weight was recorded every 6 days throughout the entire experiment.

[2] = Pharmacokinetics after intraperitoneal administration; format: in vivo; conditions: male, ICR, mouse, plasma, 5 mg/kg, 5 mg/kg IP, at one hour
Experimental: Male ICR mice weighed (29–33 g) were obtained from BioLASCO (Taiwan Co., Ltd., Ilan, Taiwan). The animal studies were performed according to NHRI institutional animal care and committee-approved procedures. Food and water were available ad libitum throughout the experiment. A single 5.0 mg/kg dose of CN016 was dissolved in normal saline and was separately administered to mice intravenously. The groups consisted of three mice for each time point. At times 0.03, 0.08, 0.25, 0.5, 1, 2, 4, 6, 8, 16, and 24 h after dosing, blood was collected from groups of three mice at each time point by cardiac puncture. Plasma was separated from blood and stored in a freezer (−80 °C) before LC/MS/MS analysis. In addition, pharmacokinetic analysis of CN016 following intraperitoneal administration (IP, 5 mg/kg) is provided in Figure S2 (Supporting Information).
Figure S2. Pharmacokinetic profiles of CN016 (5 mg/kg) after intraperitoneal administration. (A) Plasma concentration-time profiles of the CN016 after intraperitoneal injection of a 5 mg/kg dose. Red Circle: a drug concentration of 10 nM.
Blue Triangle: a drug concentration of 1000 nM. (B) Pharmacokinetic parameter of CN016 after intraperitoneal administration.
The pharmacokinetics of CN016 after IP administration (5 mg/kg) is illustrated in Figure S2. […]

[3] = biological target: T1, CYP 2E1 (Homo sapiens, UniProt P05181); experiment: Cytochrome P450 testing, CYP 2E1; format: in vitro ADME; conditions: chlorzoxazone 6-hydroxylation; read-out: Concentration of inhibition (IC50), CYP 2E1
T1 construct: host or cells: baculovirus-infected insect cells (supersomes)
Source text: (§1) Cytochrome P450 testing of CN016
(§2) The effects of CN016 on the activity of six specific human liver cytochrome P450 isozymes (CYP 1A2, 2C9, 2C19, 2D6, 2E1, 3A4) expressed in baculovirus-infected insect cell supersomes were studied. The reactions used to measure the activity of these enzymes were phenacetin O-deethylation (1A2), diclofenac 4-hydroxylation (2C9), mephenytoin 4-hydroxylation (2C19), dextromethorphan O-demethylation (2D6), chlorzoxazone 6-hydroxylation (2E1) and testosterone 6-hydroxylation (3A4).
(§3) Furafylline, sulfaphenazole, tranylcypromine, quinidine, diethyldithiocarbamate and azamulin were used as reference inhibitors of these enzymes. Incubation mixtures containing no CN016 or reference inhibitors were used as controls. The tested result […]
(§4) Table S4. Result of Cytochrome P450 testing of CN016

[4] = biological target: T2, CYP 3A4 (Homo sapiens, UniProt P08684); experiment: Cytochrome P450 testing, CYP 3A4; format: in vitro ADME; conditions: testosterone 6-hydroxylation; read-out: Concentration of inhibition (IC50), CYP 3A4
T2 construct: host or cells: baculovirus-infected insect cells (supersomes)
Source text: as §1, §2, §3, §4

[5] = biological target: Bradykinin B1 (Homo sapiens, UniProt P46663); experiment: LeadProfilingScreen: Bradykinin B1; format: binding
[6] = biological target: Dopamine D2S (Homo sapiens, UniProt P14416); experiment: LeadProfilingScreen: Dopamine D2S; format: binding
[7] = biological target: Dopamine D4.4 (Homo sapiens, UniProt P21917); experiment: LeadProfilingScreen: Dopamine D4.4; format: binding
[8] = biological target: Endothelin ETA (Homo sapiens, UniProt P25101); experiment: LeadProfilingScreen: Endothelin ETA; format: binding
[9] = biological target: Epidermal Growth Factor (EGF) (Homo sapiens, UniProt P00533); experiment: LeadProfilingScreen: Epidermal Growth Factor (EGF); format: binding
[10] = system: GABAA, Flunitrazepam, Central; experiment: LeadProfilingScreen: GABAA, Flunitrazepam, Central; format: binding, rat; conditions: 10 μM
[11] = system: GABAA, Muscimol, Central; experiment: LeadProfilingScreen: GABAA, Muscimol, Central; format: binding, rat; conditions: 10 μM
[12] = system: Imidazoline I2, Central; experiment: LeadProfilingScreen: Imidazoline I2, Central; format: binding, rat; conditions: 10 μM
[13] = biological target: Melatonin MT1 (Homo sapiens, UniProt P48039); experiment: LeadProfilingScreen: Melatonin MT1; format: binding
[14] = biological target: Nicotinic Acetylcholine α3β4 (Homo sapiens, UniProt P30926+P32297); experiment: LeadProfilingScreen: Nicotinic Acetylcholine α3β4; format: binding
[15] = biological target: Opiate δ1 (OP1, DOP) (Homo sapiens, UniProt P41143); experiment: LeadProfilingScreen: Opiate δ1 (OP1, DOP); format: binding
[16] = biological target: Serotonin (5-Hydroxytryptamine) 5-HT1A (Homo sapiens, UniProt P08908); experiment: LeadProfilingScreen: Serotonin 5-HT1A; format: binding
[17] = biological target: Transporter, GABA (Rattus norvegicus, UniProt P23978); experiment: LeadProfilingScreen: Transporter, GABA; format: binding

## O=P(O)(O)CCN1CCC(Nc2cc(N3CCOCC3)nc(NCc3cn(CCCO)nn3)n2)CC1 [CN016, {2-[4-(2-{[1-(3-Hydroxy-propyl)-1H-[1,2,3]triazol-4-ylmethyl]-amino}-6-morpholin-4-yl-pyrimidin-4-ylamino)-piperidin-1-yl]-ethyl}-phosphonic Acid Hydrobromide Salt]
[1]; CN016 5 mg/kg IP 1 h prior to paclitaxel 4.5 mg/kg
  alleviation of mechanical allodynia (von Frey): only moderately alleviated
[1]; CN016 10 or 20 mg/kg IP 1 h prior to paclitaxel 4.5 mg/kg
  alleviation of paclitaxel-induced mechanical allodynia (von Frey): able to alleviate
[2]
  concentration at 1 h: 58 ng/mL and 84.4 nM
[3]
  IC50: > 100 µM
[4]
  IC50: > 100 µM
[5]
  inhibition at 10 µM: -10%
[6]
  inhibition at 10 µM: 3%
[7]
  inhibition at 10 µM: 12%
[8]
  inhibition at 10 µM: 15%
[9]
  inhibition at 10 µM: -1%
[10]
  Inhibition (%), GABAA, Flunitrazepam, Central: -5%
[11]
  Inhibition (%), GABAA, Muscimol, Central: 5%
[12]
  Inhibition (%), Imidazoline I2, Central: -5%
[13]
  inhibition at 10 µM: 6%
[14]
  inhibition at 10 µM: 7%
[15]
  inhibition at 10 µM: 6%
[16]
  inhibition at 10 µM: 2%
[17]
  inhibition at 10 µM: 2%
